# Laboratory results taken from publication PMC9354050.
# Sequences of proteins named here, by UniProt entry; tags and fusion partners are left off.
# UniProt Q9Y239, whole entry: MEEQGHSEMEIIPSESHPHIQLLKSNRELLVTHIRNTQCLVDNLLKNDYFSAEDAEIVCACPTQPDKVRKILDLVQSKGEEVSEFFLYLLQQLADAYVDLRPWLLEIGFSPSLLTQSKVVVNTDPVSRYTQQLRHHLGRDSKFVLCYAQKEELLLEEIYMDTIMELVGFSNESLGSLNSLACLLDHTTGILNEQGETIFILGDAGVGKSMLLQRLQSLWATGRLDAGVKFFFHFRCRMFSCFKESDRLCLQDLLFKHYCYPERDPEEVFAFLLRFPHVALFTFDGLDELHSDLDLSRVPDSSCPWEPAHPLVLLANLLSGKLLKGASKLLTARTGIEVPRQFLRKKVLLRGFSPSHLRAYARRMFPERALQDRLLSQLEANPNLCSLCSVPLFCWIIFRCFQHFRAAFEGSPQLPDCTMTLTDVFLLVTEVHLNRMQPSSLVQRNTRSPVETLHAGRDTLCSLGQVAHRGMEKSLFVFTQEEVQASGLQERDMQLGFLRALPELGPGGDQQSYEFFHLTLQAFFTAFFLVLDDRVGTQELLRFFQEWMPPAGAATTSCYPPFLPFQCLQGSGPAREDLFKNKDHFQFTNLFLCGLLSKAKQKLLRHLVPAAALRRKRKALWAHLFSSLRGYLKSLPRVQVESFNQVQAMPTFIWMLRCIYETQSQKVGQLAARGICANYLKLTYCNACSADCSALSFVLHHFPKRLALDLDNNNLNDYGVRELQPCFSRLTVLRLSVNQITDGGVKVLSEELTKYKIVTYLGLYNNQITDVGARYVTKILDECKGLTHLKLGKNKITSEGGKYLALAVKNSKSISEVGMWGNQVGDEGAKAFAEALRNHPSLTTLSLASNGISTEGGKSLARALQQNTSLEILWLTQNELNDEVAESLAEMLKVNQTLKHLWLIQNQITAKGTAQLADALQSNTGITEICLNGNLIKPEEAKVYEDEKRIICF
# Target: Nucleotide-binding oligomerization domain 1 (NOD1) (Homo sapiens, UniProt Q9Y239)
# Test: HEK-Blue NOD1 cell NF-κB/SEAP reporter assay (agonism)
# Details: read-out: NOD1 EC50 ^b
pEC50 (tested form: TFA salt),pEC50 (tested form: bis-TFA salt),Compound
6.16,,CCCCCCCCCCCC(=O)N[C@H](CCC(=O)N[C@@H](C/C=C/[C@@H](N)C(=O)O)C(=O)O)C(=O)O
7.34,,CCCCCCCCCCCC(=O)N[C@H](CCC(=O)N[C@@H](/C=C/C[C@@H](N)C(=O)O)C(=O)O)C(=O)O
,6.90,"CCCCCCCCCCCCN(CCCCCCCCCCCC)[C@H](CCC(=O)N[C@@H](C/C=C/[C@@H](N)C(=O)O)C(=O)O)C(=O)O (single isomer, unassigned)"
,6.79,CCCCCCCCCCCCN(CCCCCCCCCCCC)[C@H](CCC(=O)N[C@@H](/C=C/C[C@@H](N)C(=O)O)C(=O)O)C(=O)O

# pEC50: −log10 of the molar value. Like-named read-outs stand apart in the source and are kept apart here.
